# Tests used:
# [1] = test system: AAV producer cells; experiment: Experiment 4: Full rate of purified AAV by anion exchange high performance liquid chromatography
# Experimental: The AAV was extracted and purified from the sample on Day 7 in Experiment 3 using an AAVpro Purification Kit (Takara Bio Inc., 6675). For the sample solution after the purification, the area value of each of the peaks of the Empty and Full particles of AAV was measured using high performance liquid chromatography, and the Full rate (the ratio of the amount of capsids containing the full-length gene to the total amount of capsids) was calculated. An anion exchange column was used as a separation column, and a fluorescence detector (excitation: 280 nm, detection: 348 nm) was used for detection.
# [2] = test system: AAV producer cells; experiment: Experiment 3: AAV titer in cell culture solution continuously collected every 24 hours for 7 days; details: 30 × 10^6 cells/mL or more kept for 7 days, doxycycline 5 µg/mL, CI-994 7.5 µmol/L, 72 hours
# Experimental: 280 mL of a BalanCD HEK293 medium (FUJIFILM Irvine Scientific, 551-34231) was seeded with AAV producer cells suspended at 0.5 × 10^6 cells/mL in a 0.5 L reactor (Biott Corporation). The perfusion culture was performed using a BalanCD HEK293 medium (FUJIFILM Irvine Scientific, 551-34231) and a BalanCD HEK293 Feed (FUJIFILM Irvine Scientific, 550-34245) as a perfusion medium.
# The HEK cell culture solution, which had been cultured for 72 hours after the gene transfer under the conditions of 37°C and 8% CO2, was collected, and the cells were disrupted by freezing and thawing at -80°C. Then, the supernatant was collected by centrifugation at 13,800 ×g, 2 mmol/L (final concentration) MgCl2, and 25 U/mL Benzonase was added thereto, and a reaction was carried out at 37°C for 2 hours to digest gDNA (genomic DNA) and residual plasmid. […] Measurement was performed using a droplet reader, and the AAV genomic titer (vg/mL) was calculated.
# As in Experiment 2, the AAV producer cells were cultured at 30 × 10^6 cells/mL or more by perfusion culture in a reactor, and the cells were collected into a flask to examine the production of AAV. […] After the drug addition, the cells were recovered after the treatment for 72 hours, and the AAV titer was measured.
# [3] = test system: AAV producer cells; experiment: Experiment 2: AAV titer by ddPCR in high-density cell culture solution after perfusion culture; details: 30 × 10^6 cells/mL, doxycycline 5 µg/mL, CI-994 conc: 7.5 µM, 72 hours; untreated sample 1.1 × 10^12 vg/mL
# From the text: A plasmid (SEQ ID NO: 1 and SEQ ID NO: 2) was introduced into HEK293 cells (Thermo Fisher Scientific, A49784) adapted to growth in suspension culture, and a stable expression cell line (AAV producer cell) in which the sequence 1 (including a reverse tetracycline-controlled transactivator (rtTA) gene, a Rep gene, a Cap gene, an E2 gene, an E4 gene, and a GFP gene (as a GOI) sandwiched between ITR sequences, in which the Rep gene, the Cap gene, the E2 gene, and the E4 gene are under the control of a promoter having a tetracycline response element (TRE) sequence) was incorporated into the chromosome of the cell was cultured in a BalanCD HEK293 medium (FUJIFILM Irvine Scientific, 551-34231). […]
# The HEK cell culture solution, which had been cultured for 72 hours after the gene transfer under the conditions of 37°C and 8% CO2, was collected, and the cells were disrupted by freezing and thawing at -80°C. […] Measurement was performed using a droplet reader, and the AAV genomic titer (vg/mL) was calculated.
# The AAV producer cells were cultured at 30 × 10^6 cells/mL by perfusion culture in a reactor, and then 24 mL of the culture solution was transferred to a 125 mL flask. […] After the drug addition, the cells were recovered after the treatment for 72 hours, and the AAV titer was measured.
compound,measurement,setting,value
CC(=O)Nc1ccc(C(=O)Nc2ccccc2N)cc1,effect on the Full rate,"[1]; Day 7 sample of Experiment 3, CI-994-treated versus untreated",improvement effect on the Full rate
same,Full rate (%),"[1]; Day 7 sample of Experiment 3, ratio of capsids containing the full-length gene to total capsids, without CI-994: 23.8",30.8%
same,AAV titer compared with the CI-994-untreated sample,[2],higher titer
same,AAV titer,[3],2.2 × 10^12 vg/mL
